The target of the assay is BRC4–RAD51 interaction (Homo sapiens, UniProt Q06609). The assay is described as follows: Competitive biochemical ELISA assay (biotinylated BRC4 peptide vs RAD51). To be noted: read-out: EC50 (μM) on ELISA assay; competition with BRC4 for RAD51; triplicate, ± standard deviation; NA = not active; racemic mixtures unless enantiomer named. The protocol:
To investigate the mechanism of action of the new dihydroquinolone pyrazoline derivatives, different biological assays were performed. As a primary screening, the ability of compounds 5d–57d to inhibit RAD51-BRCA2 interaction was investigated with a competitive biochemical ELISA assay against the parent compound 4d (Table 1). This assay is effective in evaluating the ability of new molecules to compete with BRC4 to bind to RAD51.[30] […] The activity was affected when the fluorine was replaced with chlorine (11d, EC50 = 59 ± 8 μM) and trifluoromethyl groups (16d, EC50 = 29 ± 2 μM). […] 18d–21d, 23d, 25d, 30d, and 31d were active at micromolar range, all very similar to the initial hit. […] The replacement of the aromatic ring A in combination with the substitution of the pyrazoline nitrogen with either propionyl or acetyl chain yielded compounds 33d–51d. […]
Competitive ELISA screening assay using biotinylated BRC4 peptide to disrupt the BRC4–RAD51 interaction was performed by modifying the method described by Rajendra et al.[33] […] Antibody raised against RAD51 (Millipore) and HRP-secondary antibody staining to develop the 3,3′,5,5′-tetramethylbenzidine signal (Sigma) quenched with 1 M HCl was used as the assay readout. Colorimetric measure was read on a Victor5 (PerkinElmer) plate reader. […] Results were analyzed by using GraphPad software.

By UniProt entry, the sequences of proteins in these tests, tags left out.
UniProt Q06609, whole entry: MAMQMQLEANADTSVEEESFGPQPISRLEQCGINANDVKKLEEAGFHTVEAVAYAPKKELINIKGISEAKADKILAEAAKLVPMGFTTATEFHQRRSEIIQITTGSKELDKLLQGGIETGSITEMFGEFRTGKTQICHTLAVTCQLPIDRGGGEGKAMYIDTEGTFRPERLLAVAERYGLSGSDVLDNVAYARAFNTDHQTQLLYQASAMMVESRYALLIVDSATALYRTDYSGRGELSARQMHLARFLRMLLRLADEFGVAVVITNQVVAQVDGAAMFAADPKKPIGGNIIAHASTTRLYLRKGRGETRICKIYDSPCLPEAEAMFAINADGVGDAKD

SMILES strings stand for the structures.

Regarding `O=C(O)CCC(=O)N1N=C(c2c(-c3ccccc3)c3cc(Cl)ccc3[nH]c2=O)CC1c1ccc(F)cc1` (single isomer, unassigned) [4d-II], the EC50 came out at 10 µM.

Consider `O=C(O)CCC(=O)N1N=C(c2c(-c3ccccc3)c3cc(Cl)ccc3[nH]c2=O)CC1c1ccc(F)cc1` (single isomer, unassigned) [4d-I], for which the EC50 was found to be 4 µM.

For the origin of these results see paper PMC7997579, “Synthetic Lethality in Pancreatic Cancer: Discovery of a New RAD51-BRCA2 Small Molecule Disruptor That Inhibits Homologous Recombination and Synergizes with Olaparib” (Journal of Medicinal Chemistry, 2020).
